According to patent US5017565A, “Use of sulfated polysaccharides to inhibit pancreatic cholesterol esterase” (priority 1989, dated 1991):

Biological target: human 100 kDa cholesterol esterase
Assay: Inhibition of triolein hydrolysis by cholesterol esterase
Assay type: biochemical
Conditions: table 3; triolein used instead of cholesterol oleate
Protocol: Alginic acid from Macrocystis pyrifera (kelp) was dissolved in water at a concentration of 1 mg/ml. This stock solution was used to prepare various polysaccharide concentrations down to 10^-5 mg/ml. Human pancreatic cholesterol esterase was purified as described by Bosner et al., Proc Nat'l. Acad. Sci., 85, 7438 (1988). To measure cholesterol esterase inhibition by alginic acid, 50 μl of cholesterol esterase (10 μg/ml). 75 μl of phosphatidylcholine vesicles containing cholesteryl ^14 C-oleate (1 mM 2,000 CPM/nmole). 25 μl of 100 mM taurocholate, 120 μl of 150 mM Tris. pH 7.5 and 30 μl of test alginic acid solution were incubated at 37° C. for fifteen minutes. The assay was quenched by placing the reaction vessels in a 4° C. ice bath and by adding 0.6 ml of 0.3 N NaOH and 3 ml of benzene/chloroform/methanol (1 0/1.2/0 5). The quenched reactions were vortexed for 30 seconds, centrifuged at 3,000 g for 15 minutes and 1 ml of the upper aqueous phase was added to 7 ml of Aquasol-2 (DuPont) with 0.025 ml of 6 N HCl. These mixtures were vortexed for one minute and counted for ^14 C-oleate The counts were compared to a sample which contained cholesterol esterase but no alginic acid to determine the percentage of inhibition. […]

IC50: 0.08 nM
Substance: Dextran Sulfate
